Measured values taken from patent publication US6677306B1, “Chondrogenic and osteogenic inducing molecule” (Northwestern University, priority 1998, dated 2004).

Legend:
[1] = test system: embryonic muscle fibroblasts (EMF); test: EMF [35S]-SO4-incorporation assay (sulfate incorporation into proteoglycan); format: cell-based, rat; conditions: FIG. 2B
Description: Embryonic Muscle Fibroblast (EMF) Tissue Culture Assay Embryonic Muscle Fibroblasts. Rat EMF cells were derived from the thigh muscles of 20 day old Sprague Dawley rat embryos for use in primary tissue culture assays using a modification of the Koskinen harvesting technique (Koskinen et al., 1985), and grown in growth media (GM) [α-Modified Eagle's Medium (αMEM , Life Technologies, Gaithersburg, Md.), containing 10% heat inactivated fetal bovine serum (FBS), 1% Penicillin/Streptomycin (P/S)] in 5% O2/95% air at 37° C. EMFs were frozen at passage 2 (P-2).
Short Term Culture and Labeling with ^35SO4—Sulfate. […]
Assay of ^35S Sulfate Incorporation Into Proteoglycans in the Medium. In a departure from the Koskinen et al. (1985) protocol, glycosaminoglycan synthesis was routinely determined by the measurement of incorporation of ^35S sulfate (ICM Biomedical, Costa Mesa, Calif.) into the total cetylpyridinium chloride (CPC)-precipitable materials in the media without prior papain digestion. […]
The samples were filtered through Whatman GF/A glass microfibre filters using a Millipore 12 well filtration device. […] Then 5 ml scintillation cocktail was added per vial and the radioactive counts were measured in the scintillation counter. […]

[2] = test system: thigh muscle of Long-Evans rats; test: Bone formation in vivo, implantation in muscle with collagen carrier; set-up: species or system rat; conditions: 25 μg S-100 or 35 ng rhBMP-2 on collagen, intramuscular, nine weeks
Procedure: For implantation, 25 μg S-100 or 35 ng rhBMP-2 in 200 μl of PBS/0.1% BSA were absorbed onto 0.45 mg rat tail tendon collagen and lyophilized. The coated collagen was sterilized, then placed into sterile 5 mm gelatin capsules. Capsules were prepared with the collagen only as a negative control. Demineralized insoluble dentin matrix was used as a positive control. A 1 cm incision was made and a small intramucscular pouch was created by blunt dissection into the thigh muscle of the hind limbs of 100 g (4 week old) Long-Evans rats. The capsules were inserted, then the fascia was closed using 4-0 Vicryl sutures. The skin was closed with 4-0 silk sutures. All protocols for anesthesia, surgery, recovery, care and euthanasia were approved by the Northwestern University Animal Care and Use Committee. All test samples were implanted in the right thigh, all negative collagen controls in the left. At nine weeks, the animals were euthanized and the tissues were collected and prepared for histologic examination, using the von Kossa stain for the presence of mineral deposition.

[3] = test system: embryonic rat muscle fibroblasts (EMF); test: Cell number of EMF after exposure to factors; format: cell-based; conditions: after 5 days in culture, after a 24 h exposure
Procedure: In vitro assay for chondrogenic activity: The purified recombinant proteins were tested for biological activity by the assay for enhanced incorporation of ^35S—SO4 into proteoglycan (8,11) by embryonic rat muscle fibroblasts (EMF). The EMF were seeded onto type I collagen coated 96 well plates, with an initial loading of 10^4 cell/well. The cells were grown to near confluence in alpha MEM, 10% FBS, 1% Pen/Strep in 5 days. At day 5 the growth media was replaced with conditioning media (CM), alpha MEM, 0.5% FBS, 1% Pen/Strep, and grown for an additional 24 h. Fresh CM containing the factors to be tested, was added at the concentrations noted. Four hours later, 1 μCi^35 S—SO4 in 10 μL sterile PBS was added per well, and incubation was continued for 20 h. The ^35S—SO4 incorporated into secreted proteoglycan was determined by precipitation of the proteoglycan with cetyl pyridinium chloride, as described above, followed by scintillation counting of the precipitate. The cell layer was trypsinized and the number of cells counted. Incorporation is presented as counts per minute per cell ×10^3. Recombinant human BMP2 (A kind gift from the Genetics Institute, Boston, Mass.) and the bioactive crude S100 fractions from rat incisor dentin (Amar et al., 1991) and/or bovine dentin (see Example 1) were used as the positive controls. […]

B1: rhBMP-2: recombinant human BMP-2, gift from Genetics Institute, positive control (protein, UniProt P12643 283-396, looked up)
Bone morphogenetic protein 2: QAKHKQRKRLKSSCKRHPLYVDFSDVGWNDWIVAPPGYHAFYCHGECPFPLADHLNSTNHAIVQTLVNSVNSKIPKACCVPTELSAISMLYLDENEKVVLKNYQDMVVEGCGCR
concentration level at which active in sulfate incorporation [1]: 50 to 100 ng/mL
cartilage/bone formation at implant, von Kossa histology [2]: heavily von Kossa stained mix of cartilage and bone
cell number (growth factor action) [3]: increase
